The values below come from ChEMBL document CHEMBL1144921, “14-amino, 14-alkylamino, and 14-acylamino analogs of oxymorphindole. Differential effects on opioid receptor binding and functional profiles” (J Med Chem, 2003).

The chains behind the UniProt entries cited, without tags or fusion partners. Where a name states a change or a piece, a line headed by the entry shows the natural chain unless it says otherwise.
UniProt P41145: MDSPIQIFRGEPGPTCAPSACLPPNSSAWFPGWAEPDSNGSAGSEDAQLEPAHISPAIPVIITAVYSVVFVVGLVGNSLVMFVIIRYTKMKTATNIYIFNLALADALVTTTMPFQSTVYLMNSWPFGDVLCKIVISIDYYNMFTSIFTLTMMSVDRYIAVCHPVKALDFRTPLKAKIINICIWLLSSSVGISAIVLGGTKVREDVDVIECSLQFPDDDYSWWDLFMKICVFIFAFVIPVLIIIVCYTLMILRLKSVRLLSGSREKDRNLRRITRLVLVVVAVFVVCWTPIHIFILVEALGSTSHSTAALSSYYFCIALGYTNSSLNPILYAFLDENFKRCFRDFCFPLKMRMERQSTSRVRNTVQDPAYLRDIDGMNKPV
UniProt P35372, whole entry, looked up: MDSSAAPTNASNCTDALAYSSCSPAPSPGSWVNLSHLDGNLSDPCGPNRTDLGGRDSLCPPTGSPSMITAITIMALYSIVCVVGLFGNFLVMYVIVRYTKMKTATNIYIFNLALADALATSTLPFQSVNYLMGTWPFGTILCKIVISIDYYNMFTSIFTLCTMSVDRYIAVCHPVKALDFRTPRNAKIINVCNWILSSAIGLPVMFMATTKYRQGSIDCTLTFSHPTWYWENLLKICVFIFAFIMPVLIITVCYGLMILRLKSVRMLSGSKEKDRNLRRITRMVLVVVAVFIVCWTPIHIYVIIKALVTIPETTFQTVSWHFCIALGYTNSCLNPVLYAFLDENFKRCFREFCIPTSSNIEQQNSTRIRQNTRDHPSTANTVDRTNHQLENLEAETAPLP
UniProt P41143, whole entry, looked up: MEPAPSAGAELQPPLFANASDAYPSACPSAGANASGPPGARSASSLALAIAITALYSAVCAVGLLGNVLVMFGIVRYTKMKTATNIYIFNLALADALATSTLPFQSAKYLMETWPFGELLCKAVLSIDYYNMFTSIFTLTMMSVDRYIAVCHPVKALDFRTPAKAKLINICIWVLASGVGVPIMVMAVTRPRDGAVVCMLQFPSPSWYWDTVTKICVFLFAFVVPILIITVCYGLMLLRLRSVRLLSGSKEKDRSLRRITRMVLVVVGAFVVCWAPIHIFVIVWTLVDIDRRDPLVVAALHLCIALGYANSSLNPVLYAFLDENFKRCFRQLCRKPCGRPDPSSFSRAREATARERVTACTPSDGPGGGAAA

In assay [1] the target is Kappa-type opioid receptor (Homo sapiens, UniProt P41145). Kind of assay: Percent stimulation of [35S]GTP-gamma-S, binding in recombinant human Opioid receptor kappa 1 transfected into CHO cells. It is filed as functional, cell-based. For orientation: GTPγS resists hydrolysis and so accumulates on activated G proteins.
Another assay addresses Mu-type opioid receptor (Homo sapiens, UniProt P35372). Kind of assay: Percent stimulation of [35S]GTP-gamma-S, binding in recombinant human Opioid receptor mu 1 transfected into CHO cells. It is filed as functional, cell-based.
The target in assay [2] is Delta-type opioid receptor (Homo sapiens, UniProt P41143). In words: Percent stimulation of [35S]GTP-gamma-S, binding to recombinant human Opioid receptor delta 1 expressed in CHO cells. It is filed as functional, cell-based.
In assay [3] the target is Opioid receptors; delta & kappa (Homo sapiens) (UniProt P41145+P41143). Kind of assay: Selectivity between kappa opioid receptor and delta opioid receptor. It is filed as functional.
Assay [4] addresses Opioid receptors; mu & delta (Homo sapiens) (UniProt P41143+P35372). In words: Selectivity between mu opioid receptor and delta opioid receptor. It is filed as functional.

`CN(C(=O)Cc1ccccc1)[C@H]1CC[C@@]2(CCCO2)C[C@@H]1N1CCCC1`: the results for the Stimulation (in assay [1]; on Mu-type opioid receptor; in assay [2]) were 100%, greater than 10000% and greater than 10000%, respectively. Besides, the figures for the Selectivity in assay [3] and in assay [4] were less than 3 and less than 0.11, respectively.
